Results reported in patent publication US20240117005A1, “NOVEL BICYCLIC PEPTIDES” (THE COUNCIL OF THE QUEENSLAND INSTITUTE OF MEDICAL RESEARCH, priority 2021, published 2024).

Tested on: MCF-7 cells
Test: RNA-seq differential expression, DL-2 vs. Stimulated
Assay type: cell-based, human
Conditions: MCF-7, DL-2 vs. Stimulated (PMA)
Description: RNA-sequencing (RNA seq) data were obtained from human breast cancer cell line MCF-7 with and without DL-2 treatment. A total of 9 samples from […] experimental groups were collected, as follows: • Control (non-stimulated control, Ctrl) (n=3); • Stimulated (PMA stimulated control) (n=3); • DL-2 (treated with DL-2 and stimulated with PMA) (n=3); For the DL-2 treatment group, the MCF-7 cells were exposed to DL-2 first, then stimulated with PMA thereafter. RNA-seq data were generated, fastq data were downloaded to the QIMR Berghofer server, and then archived to the HSM by Scott Wood. Sequence reads were trimmed for adapter sequences using Cutadapt (version 1.9; Martin (2011)) and aligned using STAR (version 2.5.2a; Dobin et al. (2013)) to the GRCh37 assembly with the gene, transcript, and exon features of Ensembl (release 70) gene model. […] In our analysis, we corrected for library size by dividing each sample's gene count by million reads mapped. […] Note that the inputs for DE analysis are the filtered but not normalised read counts, since edgeR performs normalisation (library size and RNA composition) internally. The […]( ) function was used to fit a quasi-likelihood negative binomial generalised log-linear model to the read counts for each gene. […]

CCCCCCCCCCCCCC(=O)NC(C)C(=O)NC1CSCc2cc3cc(c2)CSC[C@H](NC(=O)[C@H](Cc2ccccc2)NC(=O)[C@H](C(C)CC)NC(=O)[C@H](Cc2ccccc2)NC(=O)[C@H]([C@@H](C)O)NC(=O)C(CC(C)C)NC1=O)C(=O)N[C@@H](CCCNC(C)=N)C(=O)N[C@@H](CC(C)C)C(=O)N[C@@H](CCCNC(=N)N)C(=O)N[C@@H](CCCCN)C(=O)NCC(=O)N[C@@H](CCCNC(=N)N)C(=O)NC(C(=O)N[C@@H](CCSC)C(=O)NC(CCSC)C(=O)N[C@@H](CC(=O)O)C(=O)NC(C(=O)N[C@@H](CCCCN)C(=O)NC(CCCCN)C(=O)O)C(C)C)CSC3 (mixture of isomers)
logFC RDX: −0.9705
